The data set in a line: Circular dichroism of HSA secondary structure. The data set is classed as physicochemical. To be noted: 1 week incubation at 40° C., versus pristine HSA. An excerpt:
The slightly acidic environment (at or below pH 6) was employed to dissociate ZIF-8 crystals and release encapsulated NGAL via breaking coordination between the zinc ions and imidazolate. ZIF-8 encapsulated NGAL dried on the paper was almost fully eluted (>95%) whereas NGAL alone dried on the paper was only partially eluted (˜75%) (FIG. 9). It is important to note that ZIF-8 encapsulation prevented irreversible adsorption of proteins on the cellulose fibers by creating a crystal interface between the protein and paper substrate. […] NGAL concentration was tested by ELISA when NGAL was spiked in four different media. The same concentration of NGAL in phosphate-buffered saline (PBS) at pH 7.4 was set as the reference (100%). […] After storage and elution, the concentration of NGAL in the eluate was quantified using the NGAL sandwich ELISA. The preservation efficacy (preservation %) was calculated by comparing the NGAL amount in the eluate to the spiked NGAL amount in the artificial urine. […] NGAL added on a paper card was stored at 25, 40 or 60° C. for one week. […]
CD spectroscopy. […] The HSA recovered from various treatments was quantified by BCA assay for calculating molar ellipticity. The secondary structures of HSA (α-helical content, β-sheet content) were analyzed using CDPro software from CD spectra.
(In general: CD spectra are sensitive to the conformation of chiral molecules.)

The record followed here is patent US11856945B2, “Methods and systems for preparing and preserving a biological sample” (Washington University, priority 2017, dated 2024).

As for “human serum albumin [unencapsulated HSA]”, the “secondary structure (CD spectrum)” value is reported as “a decrease in the α-helical content”.
